Literature values in patent publication US20240189234A1, “SILICON PARTICLES FOR DRUG DELIVERY” (NACAMED AS, priority 2021, published 2024).

Conditions: calculated log P values from Foye's Principles of Medicinal Chemistry

| Structure (SMILES) | log P |
| --- | --- |
| OCCN1CCN(CCCN2c3ccccc3Sc3ccc(C(F)(F)F)cc32)CC1 [fluphenazine] | 3.92 |
| C[C@H](CCc1ccccc1)NC[C@H](O)c1ccc(O)c(C(N)=O)c1 [dilevalol] | 3.09 |
